{
  "source": "patent US6462016B1",
  "about": "“Method for screening agonist or antagonist of the maxadilan receptor participating in vasodilating action, and compound found by the method” (Shiseido Company, Ltd., priority 1995, dated 2002)",
  "key": {"[1]": {"molecular_target": "T1, maxadilan receptor in crude membrane fraction from the rat brain (Rattus norvegicus, UniProt P32215)", "T1 construct": "Likewise, crude membrane fractions were prepared; from tissue; host or cells: rat brain, crude membrane fraction", "T1 sequence (P32215 20-523)": "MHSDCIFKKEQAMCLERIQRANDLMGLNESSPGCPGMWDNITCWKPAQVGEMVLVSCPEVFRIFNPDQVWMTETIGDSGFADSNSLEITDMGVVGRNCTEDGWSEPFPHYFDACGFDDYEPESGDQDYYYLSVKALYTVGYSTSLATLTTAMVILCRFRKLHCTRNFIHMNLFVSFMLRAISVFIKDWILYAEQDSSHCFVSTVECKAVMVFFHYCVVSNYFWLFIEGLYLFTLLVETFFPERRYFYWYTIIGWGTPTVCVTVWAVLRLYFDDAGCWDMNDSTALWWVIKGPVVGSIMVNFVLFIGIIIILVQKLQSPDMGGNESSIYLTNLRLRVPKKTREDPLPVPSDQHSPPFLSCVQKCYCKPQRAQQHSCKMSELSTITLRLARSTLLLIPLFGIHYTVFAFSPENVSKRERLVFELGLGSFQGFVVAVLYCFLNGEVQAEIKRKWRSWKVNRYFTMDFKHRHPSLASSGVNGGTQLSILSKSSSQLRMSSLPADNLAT", "assay": "Binding test (tissue): 125I-Max, rat brain crude membrane fraction", "conditions": "read-out: dissociation constant (Kd)", "description": "(§1) Likewise, crude membrane fractions were prepared, respectively, from the brain, liver, pancreas, spleen, aorta and kidney of a rabbit, and the brains of a rat, a mouse, cattle and a human being.\n(§2) Purified maxadilan (see SEQ ID NO: 2) was labeled with ^125I according to a usual method using chloramine T, and fractionated by HPLC (high performance liquid chromatography : SHIMADZU LC-6A) to obtain a labeled compound having a specific activity of 2,000 Ci/mmol.\n(§3) 70 pM of radioactive maxadilan (^125I-Max) was incubated at 4° C. for 2 hours together with 400 μg/ml of each crude membrane fraction in the absence or presence of 1 μM of maxadilan. After completion of the reaction, ^125I-Max bound to the membrane was separated by subjecting the resultant incubation matter to suction filtration using a GF/C glass filter (Whatman GF/C), and the radioactivity of the glass filter after being dried was measured by a γ-counter.\n(§4) As is the case of FIGS. 3 and 4, the dissociation constant (Kd) and the maximum binding amount (Bmax) on each tissue were calculated, from a Scatchard plot and saturation curve prepared using each tissue."}, "[2]": {"molecular_target": "T2, maxadilan receptor in crude membrane fraction from the cattle brain (Bos taurus, UniProt Q29627)", "T2 construct": "Likewise, crude membrane fractions were prepared; from tissue; host or cells: cattle brain, crude membrane fraction", "T2 sequence (Q29627 38-513)": "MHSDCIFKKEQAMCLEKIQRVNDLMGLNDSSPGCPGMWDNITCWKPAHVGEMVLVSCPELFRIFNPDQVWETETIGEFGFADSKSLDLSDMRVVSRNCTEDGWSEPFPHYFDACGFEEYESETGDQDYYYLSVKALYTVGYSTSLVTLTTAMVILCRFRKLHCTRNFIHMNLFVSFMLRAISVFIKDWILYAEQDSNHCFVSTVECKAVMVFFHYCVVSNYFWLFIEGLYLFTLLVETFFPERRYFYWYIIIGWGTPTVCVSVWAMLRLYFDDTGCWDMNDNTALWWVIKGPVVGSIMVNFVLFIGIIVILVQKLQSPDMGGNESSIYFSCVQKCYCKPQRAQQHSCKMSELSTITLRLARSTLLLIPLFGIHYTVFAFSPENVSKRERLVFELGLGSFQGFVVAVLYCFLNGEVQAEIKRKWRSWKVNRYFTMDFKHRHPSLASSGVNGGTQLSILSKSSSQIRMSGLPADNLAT", "assay": "Binding test (tissue): 125I-Max, cattle brain crude membrane fraction", "conditions": "read-out: dissociation constant (Kd)", "description": "as §1, §2, §3, §4"}, "[3]": {"molecular_target": "maxadilan receptor in crude membrane fraction from the rabbit brain", "assay": "Binding test (tissue): 125I-Max saturation / Scatchard, rabbit brain crude membrane fraction", "conditions": "from Scatchard plot and saturation curve, read-out: dissociation constant (Kd)", "description": "The brain of a rabbit (excluding the cerebellum) was homogenized in the following buffer using Polytron PT 3000 (produced by […]).\n50 mM Tris-HCl (pH 7.6), 0.32 M sucrose, 5 mM EDTA (ethylenediaminetetraacetic acid), 1 μg/ml leupeptin, 1 μg/ml pepstatin A, 2 μg/ml bacitracin and 10 μg/ml PMSF (phenylmethylsulfonyl fluoride)\nThe homogenate was low speed centrifuged (1,000×g), the resultant precipitate was homogenized again, the resultant supernatants were combined and high speed centrifuged (30,000×g), and the precipitate was named a crude membrane fraction. […]\nas §3, §4"}, "[4]": {"molecular_target": "T3, maxadilan receptor in crude membrane fraction from the mouse brain (Mus musculus, UniProt P70205)", "T3 construct": "Likewise, crude membrane fractions were prepared; from tissue; host or cells: mouse brain, crude membrane fraction", "T3 sequence (P70205 21-496)": "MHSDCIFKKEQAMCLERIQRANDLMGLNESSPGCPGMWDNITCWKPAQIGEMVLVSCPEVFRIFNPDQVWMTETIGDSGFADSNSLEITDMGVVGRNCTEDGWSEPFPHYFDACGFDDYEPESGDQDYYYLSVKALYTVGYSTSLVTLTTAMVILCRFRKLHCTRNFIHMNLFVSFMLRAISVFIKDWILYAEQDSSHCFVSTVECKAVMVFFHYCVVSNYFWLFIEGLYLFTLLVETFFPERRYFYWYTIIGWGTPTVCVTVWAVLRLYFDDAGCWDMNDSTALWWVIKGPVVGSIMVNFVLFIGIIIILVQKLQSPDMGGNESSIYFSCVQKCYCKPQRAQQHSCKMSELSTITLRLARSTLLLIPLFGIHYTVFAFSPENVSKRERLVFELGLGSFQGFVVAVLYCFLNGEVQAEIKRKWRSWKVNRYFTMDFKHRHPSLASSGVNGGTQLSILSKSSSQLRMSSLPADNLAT", "assay": "Binding test (tissue): 125I-Max, mouse brain crude membrane fraction", "conditions": "read-out: dissociation constant (Kd)", "description": "as §1, §2, §3, §4"}},
  "data": [
    {"substance": "maxadilan", "values": [
      {"measurement": "Kd", "setting": "[1]", "result": 0.161, "unit": "nM"},
      {"measurement": "Kd", "setting": "[2]", "result": 0.066, "unit": "nM"},
      {"measurement": "Kd", "setting": "[3]", "result": 0.066, "unit": "nM"},
      {"measurement": "Kd", "setting": "[4]", "result": 0.068, "unit": "nM"}
    ]}
  ]
}
